Here are results for two substances from patent US20250295800A1, “CONJUGATE OF A SINGLE DOMAIN ANTIBODY, A SAPONIN AND AN EFFECTOR MOLECULE, PHARMACEUTICAL COMPOSITION COMPRISING THE SAME, THERAPEUTIC USE OF SAID PHARMACEUTICAL COMPOSITION” (SAPREME TECHNOLOGIES B.V., priority 2021, published 2025).

Common to all, as to type: cell-based, human
Common to all, as to conditions: titrated on fixed 50 pM bivalentVHH-EGFR-dianthin

Assay [1] deals with A431 cells (EGFR++/HER2+/-/CD71+). Kind of assay: Cell viability / cell killing (MTS) assay on A431 cells. The method, then: (§1) Cells were seeded in a 96 well plate at 5.000-10.000 c/w in 100 μL/well and incubated overnight at 37° C. The next day 10× concentrated treatment-mix samples were prepared in PBS, which contain antibody-conjugated SO1861 (i.e. a ‘binding molecule’ or an ‘endosomal escape enhancing conjugate’ of the invention) and targeted-toxin (i.e. a ‘binding molecule’) both at 10× final concentration. The media was removed from the cell culture plate and replaced by 180 μL culture media, followed by the addition of 20 μL treatment-mix/well. […] After treatment the cells were incubated for 72 hr at 37° C. before the cell viability was determined by a MTS-assay, performed according to the manufacturer's instruction (CellTiter 96® AQueous One Solution Cell Proliferation Assay, Promega). […] Subsequently, the optical density at 492 nm was measured on a Thermo Scientific Multiskan FC plate reader (Thermo Scientific). For quantification the background signal of ‘medium only’ wells was subtracted from all other wells, before the ratio of untreated/treated cells was calculated, by dividing the background corrected signal of untreated wells over the background corrected signal of the treated wells. […]

The subject of assay [2] is MDA-MB-468 cells (HER2-/EGFR++/CD71+). Kind of assay: Cell killing (MTS) assay on MDA-MB-468 cells. The method, then:
(§2) After treatment the cells were incubated for 72 hr at 37° C. before the cell viability was determined by a MTS-assay, performed according to the manufacturer's instruction (CellTiter 96@AQueous One Solution Cell Proliferation Assay, Promega). Briefly, the MTS solution was diluted 20× in DMEM without phenol red (PAN-Biotech GmbH) supplemented with 10% FBS. The cells were washed once with 200 μL/PBS well, after which 100 μL diluted MTS solution was added/well. The plate was incubated for approximately 20-30 minutes at 37° C. Subsequently, the OD at 492 nm was measured on a Thermo Scientific Multiskan FC plate reader (Thermo Scientific). For quantification the background signal of ‘medium only’ wells was subtracted from all other wells, before the cell viability percentage of treated/untreated cells was calculated, by dividing the background corrected signal of treated wells over the background corrected signal of the untreated wells (×100).

In assay [3] the test system is A2058 cells (EGFR-/HER2+/-/CD71+). Kind of assay: Cell viability / cell killing (MTS) assay on A2058 cells. The method, then: as §1
The subject of assay [4] is SK-BR-3 cells (HER2++/EGFR+/CD71+). Briefly: Cell killing (MTS) assay on SK-BR-3 cells. The method, then:
as §2

For “trastuzumab-SO1861 (DAR4): trastuzumab conjugated to SO1861-EMCH via cysteines, labile hydrazone bond”, the IC50 in assay [1], in assay [2] and in assay [3] was 400 nM each time.

For the substance “cetuximab-SO1861 (DAR4): cetuximab conjugated to SO1861-EMCH via cysteines, labile hydrazone bond”, the IC50 in assay [1] came out at 4 nM; in assay [2], 0.5 nM; in assay [4], 200 nM; in assay [3], 400 nM.

As a reminder, the IC50 is the point on the concentration scale where inhibition reaches its midpoint.
